Measurements as given in article PMC6151961 (Journal of Enzyme Inhibition and Medicinal Chemistry, 2018).
Read-outs that look alike come from different tables or passages of the source.

Legend:
CA IX [1] = target: T1, CA IX (Homo sapiens, UniProt Q16790); details: cited from earlier work
CA IX [2] = target: T1, CA IX; assay: biochemical

| Ki (CA IX [2]) | SMILES | Ki (CA IX [1]) |
| --- | --- | --- |
| – | CC(=O)OC[C@@H]1O[C@@H](O[C@H]2[C@@H](OC(C)=O)[C@H](OC(C)=O)[C@@H](NC(=S)NCc3ccc(S(N)(=O)=O)cc3)O[C@@H]2COC(C)=O)[C@@H](OC(C)=O)[C@@H](OC(C)=O)[C@H]1OC(C)=O [B0143] | 7.3 nM |
| 3.2 µM | Cc1cc(=O)oc2cc(O[C@H]3OC[C@@H](O)[C@@H](O)[C@@H]3O)ccc12 [B0791] | 3200 nM |
